## Apparent affinities of Ab-14 variants for a coronavirus HR2 peptide

Reference: Li et al. 2023, doi:10.1038/s41467-023-39022-2. File: FLAb, binding data.

Target peptide (SARS-CoV-2 spike, HR2 region): PDVDLGDISGINAS

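Phage display of a naive human antibody library on the peptide gave the parent. The variants were designed computationally from a first round of random CDR variants and then made and measured. Several design methods are mixed in this list. AlphaSeq pools MATa yeast showing the antibodies with MATalpha yeast showing the peptide. Binding brings cells together so that they mate, and sequencing counts the barcode pairs among the diploids. Each replicate has its own calibration line, from reference interactions of the BCL2 family. There are six technical replicates.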

Parent scFv Ab-14: VH joined to VL by the linker GGGGSGGGGSGGGGS. Changes lie in the light chain CDRs alone.
VH: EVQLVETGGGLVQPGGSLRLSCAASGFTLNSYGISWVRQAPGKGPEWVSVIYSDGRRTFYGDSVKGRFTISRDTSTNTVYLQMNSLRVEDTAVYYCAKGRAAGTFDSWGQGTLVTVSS
VL: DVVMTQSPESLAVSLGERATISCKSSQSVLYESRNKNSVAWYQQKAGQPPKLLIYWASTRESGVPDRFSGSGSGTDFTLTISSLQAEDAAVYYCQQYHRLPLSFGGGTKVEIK

Each variant is given by its three light chain CDRs, as the data file delimits them; those of the parent are KSSQSVLYESRNKNSVA, WASTRES, QQYHRLPLS.
Variants here have at most six changes.
Values are apparent Kd, the geometric mean of the replicates that gave a signal; lower means stronger binding.
A pair that was not seen in any replicate is written "nd"; this usually means weak binding, but a binder can also be missed.
Three control strains display no target. For all light chain designs, 4% of the pairings with them gave a signal, with a median of 430 nM and one signal in twenty below 38 nM, so weak values seen in few replicates may be background. Also given: how often the same scFv was detected with the empty control strains.
The authors' rule: three or more of the six replicates give a measured affinity, fewer mean a poor binder.
Values of this round are not directly comparable with the first-round values of the same sequences.

| CDR-L1 | CDR-L2 | CDR-L3 | Kd (apparent) | seen in | empty controls |
|---|---|---|---|---|---|
| KISKSVLFESRNKNSVA | NASTRES | QQYHRLPLS | 12 nM | 6/6 | 4/18 |
| NSSQSVLYESRNKNSVA | GGNTRES | QQYHRLPLS | 25 nM | 6/6 | 0/18 |
| KSSASVLYESRNKNAVA | DASTRES | QQYHRLPLS | 3.3 nM | 6/6 | 0/18 |
| KSLQSHLYESRNKNSVA | WASTRES | QQYHRLPLS | 310 nM | 6/6 | 0/18 |
| KQSQSVLYESRNKNSVA | WASTRES | QNYHRLPLS | nd | 0/6 | 0/18 |
| FLSQSWLYESRNKNSVA | NASTRES | QQYHRLPLS | 950 pM | 6/6 | 1/18 |
| KSSASGLYESRMKNSVA | EASTRES | QQYHRLPLS | 1.1 nM | 6/6 | 1/18 |
| KLQQSVLYESRNKNAVA | GASTRES | QQYHRLPLS | 560 pM | 6/6 | 2/18 |
| KYSQSYLYESRNKNSVA | NASQRES | QQYHRLPLS | 1.6 nM | 6/6 | 1/18 |
| KSQQSVLHESRNYNSVA | DASTRES | QQYHRLPLS | 2.7 nM | 6/6 | 0/18 |
| KLSQSELYESRNKNSVA | NASLRLS | QQYHRLPLS | 1.3 nM | 6/6 | 2/18 |
| KVSQSWWYESRNKNSVA | NASQRES | QQYHRLPLS | 660 pM | 6/6 | 0/18 |
| KYSQSVKFESRNKNSVA | DASTRES | QQYHRLPLS | 1.4 nM | 6/6 | 2/18 |
| GSSQSVLYESRNKNSVA | WASTRES | QQYHRLPLS | nd | 0/6 | 0/18 |
| KSSQNVLLESDNFNSVA | WASTRES | QTYHRLPLS | nd | 0/6 | 0/18 |
| KLQQSKLYESRNKNSVA | NASTRES | QQYHRLPLS | 810 pM | 6/6 | 0/18 |
| KSSQSVLHEMFNKNSVA | HASTRES | QQYPRLPLS | 23 µM | 2/6 | 1/18 |
| KLSQEVLYESRNKNSVA | WASTRES | QQYHWLPLS | 22 nM | 6/6 | 1/18 |
| KMSQSWLYESRNKNSVA | NASQRES | QDYHRLPLS | 1.3 nM | 6/6 | 0/18 |
| KQSQSVLYESRNKNSVA | NASTRES | QQYHRLPLD | 2.3 nM | 6/6 | 0/18 |
| KLEQSVLYQSRNKNSVA | NASTRES | QQYHRLPLS | 1.4 nM | 6/6 | 0/18 |
| KLSQSQLYESRMKNNVA | NASQRES | QQYHRLPLS | 900 pM | 6/6 | 2/18 |
| KLEQSVLYESRNKNSVA | DASTRES | QQYHRLPLS | 1.7 nM | 6/6 | 0/18 |
| KSSQQVLYESRNKNSVA | HASTRES | QQYGRLPLS | 1.2 nM | 6/6 | 1/18 |
| KLQQSHLYESRNKNSVA | EASTRCS | QQYHRLPLS | 800 pM | 6/6 | 0/18 |
| FLSQSELYESRNKNSVA | NASTRMS | QQYHRLPLS | 1.1 nM | 6/6 | 3/18 |
| KVSQSWLMESRNKNSVA | EASTRVS | QQYHRLPLS | 700 pM | 6/6 | 1/18 |
| KSQQSWLYESRNKNSVA | GASAREV | QQYHRLPLS | 1.2 nM | 6/6 | 0/18 |
| KASQEVLYESRNKNSVA | WASTRES | QAYHRLPES | nd | 0/6 | 0/18 |
| KSSWSVLYESNNKNSVA | QASTRED | QQYHRLPLS | 3.0 nM | 6/6 | 3/18 |
| KSSESVLYESRNKGSVA | WDSTRES | QQKHRLPLS | nd | 0/6 | 1/18 |
| RSSISVLYELRNKNSVA | WASTRES | QQYHRLPLS | nd | 0/6 | 0/18 |
| KLPQSELYESRNKNSVA | NASTRLS | QQYHRLPLS | 650 pM | 6/6 | 1/18 |
| KSSQSVLYESRNKNNVA | NASTRES | QQYHRLPLS | 1.0 nM | 6/6 | 0/18 |
| KLDQSVLYESRNKNAVA | EASTRES | QQYHRLPLS | 620 pM | 6/6 | 1/18 |
| KVSQSVLYESNNKNSVA | WASTRES | QQYHRLPLS | 4.3 nM | 6/6 | 0/18 |
| KLSQSMLYESRNKNSVA | QASTRES | QQYHRLPLS | 570 pM | 6/6 | 1/18 |
| HSSPSVPYESRNKNSVA | NASTREE | QDYHRLPLS | 1.8 nM | 6/6 | 1/18 |
| KVSQSHLYESRMKNSVA | DASTRCS | QQYHRLPLS | 450 pM | 6/6 | 2/18 |
| KFSQKVLYEHGTKNSVA | NASTRES | QQYHRLPLS | 2.1 nM | 6/6 | 1/18 |
| HSSQSVLYESRNKNSVA | WASTRED | QQYGRLPLS | 12 nM | 6/6 | 0/18 |
| KSAQGVLYESRNKNHVA | GASTRES | QQYHRLPLS | 1.6 nM | 6/6 | 1/18 |
| KLSQSHLYESRNKNSVA | EASTRLS | QQYHRLPLS | 1.8 nM | 6/6 | 1/18 |
| KLSQSVLYESRNKNNVA | GASTRES | QQYHRLPLS | 480 pM | 6/6 | 0/18 |
| KSSQSVLTGSWNLNSVA | WASTRES | QQYHRLPLS | nd | 0/6 | 1/18 |
| KSSSSVLYESRNKNSVA | KASTRES | QQYHRLPLI | 19 nM | 6/6 | 1/18 |
| KSSQSVLYESGNKNSVA | KASTRES | QQYHRTPLE | 780 nM | 3/6 | 2/18 |
| KSSTSYLYESRNKNSVA | AASTRES | QQYHRLPLS | 1.4 nM | 6/6 | 0/18 |
| KSKQSTLYESRNKNSVA | WASTRES | DQYSRLPLS | nd | 0/6 | 0/18 |
| KSSWSQLYESGNKNSVA | HASTRED | QQYHRLPLS | 1.2 nM | 6/6 | 2/18 |
| KLWQSQLYESRNKNSVA | NASQRES | QQYHRLPLS | 530 pM | 6/6 | 0/18 |
| KSSQPVLYESRNKNSVA | EASTRES | QQYHRLPLS | 3.4 nM | 6/6 | 2/18 |
| KSSQSYLYESRNKNSVA | QASTPES | QQYHRYPLS | 170 nM | 1/6 | 0/18 |

The 6 strongest on average among those seen in every replicate, once more:

CDR-L1	CDR-L2	CDR-L3	Kd (apparent)	seen in	empty controls
KVSQSHLYESRMKNSVA	DASTRCS	QQYHRLPLS	450 pM	6/6	2/18
KLSQSVLYESRNKNNVA	GASTRES	QQYHRLPLS	480 pM	6/6	0/18
KLWQSQLYESRNKNSVA	NASQRES	QQYHRLPLS	530 pM	6/6	0/18
KLQQSVLYESRNKNAVA	GASTRES	QQYHRLPLS	560 pM	6/6	2/18
KLSQSMLYESRNKNSVA	QASTRES	QQYHRLPLS	570 pM	6/6	1/18
KLDQSVLYESRNKNAVA	EASTRES	QQYHRLPLS	620 pM	6/6	1/18